Measurements from US8193377B2, “(−)-epigallocatechin gallate derivatives for inhibiting proteasome” (The Hong Kong Polytechnic University, priority 2004, dated 2012).

Sequences of proteins named here, by UniProt entry; tags and fusion partners are left off.
UniProt Q9P992, whole entry: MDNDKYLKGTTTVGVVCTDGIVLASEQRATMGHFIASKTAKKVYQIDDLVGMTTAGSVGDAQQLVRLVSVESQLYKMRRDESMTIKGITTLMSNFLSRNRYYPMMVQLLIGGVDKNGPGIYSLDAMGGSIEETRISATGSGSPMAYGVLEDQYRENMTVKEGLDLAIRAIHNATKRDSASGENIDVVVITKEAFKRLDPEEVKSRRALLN

Target: 20S prokaryotic proteasome (UniProt Q9P992)
Test: Table 2: effects of tea polyphenols on 20S prokaryotic proteasome activities
Assay type: biochemical
Conditions: Table 2, This work
Description: Removal of an —OH from B-ring of (−)-EGCG generates (−)-ECG that has decreased proteasome-inhibitory potency in vitro (0.58 μM). To further examine the effects of B-ring —OH group deletion on proteasome-inhibitory and cell death-inducing abilities, we synthesized several novel EGCG analogs with eliminated —OH groups on the B-ring as well as their putative prodrugs, the peracetate-protected counterparts. By using a purified 20S proteasome and a chymotrypsin-like fluorogenic substrate, the proteasome-inhibitory effects of the following unprotected polyphenol analogs are determined: […]

SMILES | IC50
O=C(O[C@@H]1Cc2c(O)cc(O)cc2O[C@@H]1c1cccc(O)c1)c1cc(O)c(O)c(O)c1 | 1.22 µM
O=C(O[C@H]1Cc2c(O)cc(O)cc2O[C@H]1c1cccc(O)c1)c1cc(O)c(O)c(O)c1 | 0.84 µM
